Experimental data as given in patent US20240189318A1, “THERAPEUTIC REGIMENS OF AN INHIBITOR OF THE ENZYMATIC ACTIVITY OF BRG1 AND BRM” (FOGHORN THERAPEUTICS INC., priority 2021, published 2024).

Legend:
Format in all cases: in vitro ADME
[1] = tested on: CYP2C8 mRNA; test: CYP mRNA level in cultured human hepatocytes, CYP2C8; settings: 72 hours, mean ± SD of three donors
[2] = tested on: CYP2C19 mRNA; test: CYP mRNA level in cultured human hepatocytes, CYP2C19; settings: 10 nM, 72 hours, mean ± SD of three donors
[3] = tested on: CYP3A activity; test: CYP enzyme activity in cultured human hepatocytes, CYP3A4; settings: 0.3 nM, 72 hours, mean ± SD of three donors

SMILES: COC[C@H](NC(=O)c1ccn(S(C)(=O)=O)c1)C(=O)Nc1nc(-c2cccc(N3C[C@@H](C)O[C@@H](C)C3)n2)cs1 [compound of formula (I), N-((S)-1-((4-(6-(cis-2,6-dimethylmorpholino)pyridin-2-yl)thiazol-2-yl)amino)-3-methoxy-1-oxopropan-2-yl)-1-(methylsulfonyl)-1H-pyrrole-3-carboxamide]
- mRNA Fold Change Relative to the Vehicle Control ([1]; 0.3 nM): 0.93 ± 0.21
- mRNA Fold Change Relative to the Vehicle Control ([1]; 10 nM): 0.42 ± 0.15
- mRNA Fold Change Relative to the Vehicle Control [2]: 1.04 ± 0.14
- Enzyme Activity Fold Change Relative to the Vehicle Control [3]: 0.93 ± 0.15
